These are literature values, as cited in publication PMC5672791 (Journal of medicinal chemistry, 2015).

Data set [1] relates to mMC4R mutations (E92K, F253S). The settings on record: cited from earlier work.
The next data set deals with MC3R and/or MC4R. The note with it: fasted mice; cited from earlier work.

“Ac-Nle-c[Asp-His-DNal(2′)-Arg-Trp-Lys]-NH2 [SHU9119]”: in data set [1], the “binding to mMC4R mutations E92K, F253S” value was “minimal effects”. In addition, the “feeding after i.c.v. injection” value in the data set with MC3R and/or MC4R is “significant increased feeding”.
